Literature values as cited in patent publication US11512075B2 (priority 2017, dated 2022).

Sequences of proteins named here, by UniProt entry; tags and fusion partners are left off. A change or cut given only in a name is not applied to a line headed by its entry.
UniProt P41145: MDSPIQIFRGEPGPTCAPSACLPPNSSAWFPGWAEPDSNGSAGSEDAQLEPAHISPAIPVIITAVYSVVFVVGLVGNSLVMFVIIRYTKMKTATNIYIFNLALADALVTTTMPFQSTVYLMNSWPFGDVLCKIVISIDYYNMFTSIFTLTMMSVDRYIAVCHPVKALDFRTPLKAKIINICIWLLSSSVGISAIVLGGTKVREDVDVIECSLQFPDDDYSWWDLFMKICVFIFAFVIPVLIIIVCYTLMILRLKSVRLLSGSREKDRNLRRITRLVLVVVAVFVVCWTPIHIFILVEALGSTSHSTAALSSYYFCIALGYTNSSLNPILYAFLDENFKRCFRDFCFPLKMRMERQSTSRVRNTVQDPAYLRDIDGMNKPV

Molecular target: kappa-opioid receptor (Homo sapiens, UniProt P41145)
Settings: C8 epimerization; cited from earlier work

In the case of COC(=O)[C@@H]1C[C@H](OC(C)=O)C(=O)[C@H]2[C@@]1(C)CC[C@H]1C(=O)O[C@H](c3ccoc3)C[C@]21C [8-epi-SA, 8-epi-salvinorin A], the “loss in potency versus SalA” value is given as 154-356 fold.
